In patent publication US9089521B2, “Method for regulating production of hemoglobin beta chains” (priority 2001, dated 2015):

What was measured:
[1] = system: human erythroid precursor cells; test: Uptake of FITC-labeled ferritin-H, fluorescence microscopy; assay type: cell-based; details: 1 hour at 37 degrees C.
Description: Microscopy. Cells transfected with EGFP (enhanced green fluorescent protein) vector (FIGS. 13 & 14) and cells transduced with FITC-labeled ferritin-H protein (FIGS. 24 & 25) were viewed with a Nikon Optiphot microscope with epi-fluorescence optics. For confocal microscopy, cells were fixed with 1% formaldehyde 48 hours after transfection, and stained with DAPI nuclear stain. Images were obtained using a Leica TCS NT laser-scanning confocal microscope and were analyzed with Leica TCS software.

[2] = system: erythroid precursor cells from pediatric sickle cell disease patients; test: HbS-to-HbF switching in two-phase culture, HPLC of hemoglobins and immuno-HbF fluorescence; assay type: cell-based, human; details: FIG. 23

| Substance | uptake after pre-incubation with protein transfection reagent (Chariot) ([1]; FIG. 25 D) | uptake from the surrounding medium without transfection reagent ([1]; FIGS. 24 and 25) | HbS-to-HbF hemoglobin switch ([2]; administered day 1 of phase II culture with rhEpo, HPLC, observed 23 days to 4 weeks after administration) | cellular distribution of HbF production ([2]; immuno-HbF fluorescence) |
| --- | --- | --- | --- | --- |
| FtH-FITC: ferritin-H protein labeled with FITC florescent dye | more intense fluorescence | took up |  |  |
| ferritin-H protein: heavy chain (H) type subunit of ferritin; product of human FTH1 gene; repressor of β-globin gene |  |  | total switch; also recorded: complete HbS-to-HbF switch | pancellular |

Entries after “also recorded” stand apart in the source; their conditions may differ.
